# Key:
# Assay type in all cases: functional
# Pseudomonas aeruginosa [1] = test: Antimicrobial activity against multi drug-resistant Pseudomonas aeruginosa CCARM 2109 assessed as reduction in microbial growth incubated for 18 to 24 hrs by two-fold serial dilution method
# Staphylococcus aureus [2] = test: Antimicrobial activity against methicillin-resistant Staphylococcus aureus CCARM 3089 assessed as reduction in microbial growth incubated for 18 to 24 hrs by two-fold serial dilution method
# Staphylococcus aureus [3] = test: Antimicrobial activity against methicillin-resistant Staphylococcus aureus CCARM 3095 assessed as reduction in microbial growth incubated for 18 to 24 hrs by two-fold serial dilution method
# Staphylococcus aureus [4] = test: Antimicrobial activity against methicillin-resistant Staphylococcus aureus CCARM 3090 assessed as reduction in microbial growth incubated for 18 to 24 hrs by two-fold serial dilution method
# Pseudomonas aeruginosa [5] = test: Antimicrobial activity against multi drug-resistant Pseudomonas aeruginosa CCARM 2095 assessed as reduction in microbial growth incubated for 18 to 24 hrs by two-fold serial dilution method
smiles,measurement,setting,value
CC[C@H](C)[C@H](NC(=O)CN)C(=O)NCC(=O)N[C@@H](C)C(=O)N[C@H](C(=O)N[C@@H](CC(C)C)C(=O)N[C@@H](CCCCN)C(=O)N[C@H](C(=O)N[C@@H](CC(C)C)C(=O)N[C@H](C(=O)N[C@H](C(=O)NCC(=O)N[C@@H](CC(C)C)C(=O)N1CCC[C@H]1C(=O)N[C@@H](C)C(=O)N[C@@H](CC(C)C)C(=O)N[C@H](C(=O)N[C@@H](CO)C(=O)N[C@@H](Cc1c[nH]c2ccccc12)C(=O)N[C@H](C(=O)N[C@@H](CCCCN)C(=O)N[C@@H](CCCNC(=N)N)C(=O)N[C@@H](CCCCN)C(=O)N[C@@H](CCCNC(=N)N)C(=O)N[C@@H](CCC(N)=O)C(=O)N[C@@H](CCC(N)=O)C(N)=O)[C@@H](C)CC)[C@@H](C)CC)[C@@H](C)O)[C@@H](C)O)C(C)C)C(C)C [MELITTIN],MIC,Pseudomonas aeruginosa [1],4 µM
same,MIC,Staphylococcus aureus [2],2 µM
same,MIC,Staphylococcus aureus [3],2 µM
same,MIC,Staphylococcus aureus [4],4 µM
same,MIC,Pseudomonas aeruginosa [5],2 µM
